Results on one substance are retold here after patent US10961163B2, “Compositions and methods useful for enhancing the microbial conversion of nitrate into ammonium” (The Regents of the University of California, priority 2016, dated 2021).

In the experiment the test system is microbial enrichment cultures. Description: Inhibitory potency (IC50) of inorganic compounds against growth and ammonium production, microbial enrichment with yeast extract. The format is cell-based. The following applies: microbial enrichment with complex carbon source (yeast extract), serial dilutions of inorganic compound; higher ratio favors ammonium production.

Consider Sodium Fluorophosphate, for which the “NH4^+ IC50/growth IC50 ratio” value stood at 1.0647.
